We go through one molecule from US10201532B2, “Compounds and their use” (ALLECRA THERAPEUTICS GMBH, priority 2010, dated 2019).

This assay deals with KPC2 K. pneumoniae ATCC BAA 1705. As to the kind of experiment: Mice systemic infection model. Conditions: sub-cutaneous, three time points post-infection, piperacillin study, survival to 7 days. Format: in vivo. How it is done:
Female Swiss Albino mice, weighing 18-22 g were used for all studies. For each dose group, 5 or 6 mice were included. Study protocols were reviewed and approved by Institutional Animal Ethical Committee, Orchid Research Laboratories Limited. Mice were housed in individually ventilated cages provided with food and water ad libitum, throughout the study period. From overnight culture in Brain-Heart Infusion agar medium, challenge inoculum with required bacterial density was prepared in normal saline containing Hog gastric mucin. In studies involved with doripenem, washed bacterial cells was used. Each mouse was infected […] inoculum by intra-peritoneal injection.
Piperacillin with β-lactamase inhibitor (BLI) combinations: Increasing concentrations of piperacillin and BLIs (Compound-1 or tazobactam) as single agents or piperacillin in combination with BLIs at 1:1 ratio were prepared in aqueous agar (Bacto agar). Infected mice were dosed sub-cutaneously, with drug preparations at three different time points post-infection. […]
Survival of the treated mice were monitored twice a day, up to 7 days post-infection. Efficacy dose 50 (ED50) was calculated by Reed and Muench method (Reed, L. J.; Muench, H. “A simple method of estimating fifty percent endpoints”. The American Journal of Hygiene, 1938, 27: 493-497.).

The structures appear in SMILES notation.

Regarding `CCN1CCN(C(=O)N[C@@H](C(=O)N[C@@H]2C(=O)N3[C@@H]2SC(C)(C)[C@@H]3C(=O)O)c2ccccc2)C(=O)C1=O` [Piperacillin], the “ED50, single agent” value is given as over 800 mg/kg. The ED50 (Klebsiella pneumoniae, BAA1705, 168 h, read-out: ED50, single agent) was over 800 mg/kg.

The ED50 is the dose that gives a 50% effect, or the effect in half of the subjects.
